{"sequences": {"note": "By UniProt entry, the sequences of proteins in these tests, tags left out. Residues count along the entry.", "UniProt P05106, 27-788": "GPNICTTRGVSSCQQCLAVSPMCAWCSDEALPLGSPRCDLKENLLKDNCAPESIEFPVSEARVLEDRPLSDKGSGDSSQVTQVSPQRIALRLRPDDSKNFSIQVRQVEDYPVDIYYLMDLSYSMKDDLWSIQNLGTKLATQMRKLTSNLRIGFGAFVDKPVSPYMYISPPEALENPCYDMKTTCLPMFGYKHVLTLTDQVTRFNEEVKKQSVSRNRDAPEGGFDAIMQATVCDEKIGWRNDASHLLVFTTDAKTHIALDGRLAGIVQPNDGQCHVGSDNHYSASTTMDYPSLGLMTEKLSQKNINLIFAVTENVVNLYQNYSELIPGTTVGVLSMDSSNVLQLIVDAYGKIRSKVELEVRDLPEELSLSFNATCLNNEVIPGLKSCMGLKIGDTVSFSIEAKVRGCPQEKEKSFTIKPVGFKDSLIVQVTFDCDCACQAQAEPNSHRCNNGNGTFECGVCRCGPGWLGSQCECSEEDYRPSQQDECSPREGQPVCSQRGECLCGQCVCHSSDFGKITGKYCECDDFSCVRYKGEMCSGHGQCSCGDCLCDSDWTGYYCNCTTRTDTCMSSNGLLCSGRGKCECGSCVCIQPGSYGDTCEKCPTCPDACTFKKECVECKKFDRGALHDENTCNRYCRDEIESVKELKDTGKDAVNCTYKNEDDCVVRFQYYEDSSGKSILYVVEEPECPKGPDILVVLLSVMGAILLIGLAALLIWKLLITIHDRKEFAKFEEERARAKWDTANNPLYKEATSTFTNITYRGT", "UniProt P06756, 891-1048 partner limits assumed": "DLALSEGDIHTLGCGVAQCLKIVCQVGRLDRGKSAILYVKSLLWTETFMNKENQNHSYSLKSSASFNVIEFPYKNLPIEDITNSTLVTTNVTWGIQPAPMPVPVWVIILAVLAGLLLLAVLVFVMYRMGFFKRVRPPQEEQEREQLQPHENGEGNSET", "UniProt P06756, 31-889 limits assumed": "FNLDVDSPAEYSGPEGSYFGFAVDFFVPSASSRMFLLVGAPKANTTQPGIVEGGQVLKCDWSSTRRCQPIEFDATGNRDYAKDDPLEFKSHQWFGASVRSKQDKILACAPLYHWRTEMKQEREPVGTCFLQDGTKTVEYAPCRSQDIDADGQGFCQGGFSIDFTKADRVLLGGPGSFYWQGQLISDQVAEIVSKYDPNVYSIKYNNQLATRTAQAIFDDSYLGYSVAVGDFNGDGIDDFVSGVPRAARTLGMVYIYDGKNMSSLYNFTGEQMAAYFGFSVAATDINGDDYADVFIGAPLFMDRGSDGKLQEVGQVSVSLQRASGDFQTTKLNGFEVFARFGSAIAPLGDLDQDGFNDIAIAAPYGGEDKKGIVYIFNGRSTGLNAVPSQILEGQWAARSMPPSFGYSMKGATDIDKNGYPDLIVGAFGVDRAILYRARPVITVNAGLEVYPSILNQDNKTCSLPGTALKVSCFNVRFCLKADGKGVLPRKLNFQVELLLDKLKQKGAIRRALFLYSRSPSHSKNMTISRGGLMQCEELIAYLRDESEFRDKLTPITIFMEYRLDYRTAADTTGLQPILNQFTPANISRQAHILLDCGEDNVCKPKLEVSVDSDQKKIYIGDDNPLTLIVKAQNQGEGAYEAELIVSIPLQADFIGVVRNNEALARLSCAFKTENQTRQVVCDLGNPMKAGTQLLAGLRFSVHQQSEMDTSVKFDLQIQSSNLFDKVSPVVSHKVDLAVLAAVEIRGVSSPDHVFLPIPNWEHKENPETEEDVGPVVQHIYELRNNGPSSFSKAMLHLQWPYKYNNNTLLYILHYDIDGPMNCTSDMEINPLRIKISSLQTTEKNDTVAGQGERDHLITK"}, "source": "paper PMC2765576", "about": "(Bioconjugate chemistry, 2009)", "origin": "cited, not measured here", "molecular_target": "integrin αvβ3 (Homo sapiens, UniProt P05106+P06756)", "conditions": "corresponding literature value for unlabeled cyclic peptide; ref [12]", "data": [{"substance": "cyclo(RGD^DYK): unlabeled cyclic RGD peptide, IC50 quoted from ref 12", "values": [{"measurement": "IC50", "result": 0.23, "unit": "µM"}]}]}
